Usually pEC50 stands for the EC50 on a negative log10 scale, so that one unit is a factor of ten. Higher therefore signals a small EC50.

The chains behind the UniProt entries cited, without tags or fusion partners.
UniProt P49146, whole entry: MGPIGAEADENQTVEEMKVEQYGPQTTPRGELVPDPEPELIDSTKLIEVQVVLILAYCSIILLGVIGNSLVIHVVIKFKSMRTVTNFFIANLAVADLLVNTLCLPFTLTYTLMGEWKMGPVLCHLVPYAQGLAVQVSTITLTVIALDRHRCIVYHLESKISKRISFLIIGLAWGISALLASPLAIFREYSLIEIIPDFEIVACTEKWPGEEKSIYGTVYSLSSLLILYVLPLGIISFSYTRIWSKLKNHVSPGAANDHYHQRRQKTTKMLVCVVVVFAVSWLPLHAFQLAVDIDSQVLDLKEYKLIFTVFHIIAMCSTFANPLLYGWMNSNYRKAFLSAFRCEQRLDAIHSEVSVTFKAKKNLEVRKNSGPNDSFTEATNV

For the assay, the target named is T1, human Y2 receptor (Homo sapiens, UniProt P49146).
T1 construct: expressed in transfected cells; host or cells: COS-7 cells, transient transfection, co-transfected with Gqi5
The assay is described as follows: Human Y2 receptor potency assay (inositol phosphate turnover). The assay is classed as cell-based. Here is the method:
Potency of the test compounds on the human Y2 receptor is determined by performing dose-response experiments in COS-7 cells transiently transfected with the human Y2 receptor as well as a promiscuous G protein, Gqi5 which ensures that the Y2 receptor couples through a Gq pathway leading to an increase in inositol phosphate turnover. […] After stimulation with various concentrations of peptide for 45 min at 37 C, cells are extracted with 10% ice-cold perchloric acid followed by incubation on ice for 30 min. […] Determinations are made in duplicates.

The structures appear in SMILES notation. pEC50: −log10 of the molar value.

`CCCC[C@H](NC(=O)[C@H](CCC(N)=O)NC(=O)[C@H](CCC(=O)O)NC(=O)[C@@H]1CCCN1C(=O)[C@@H](NC(=O)[C@H](C)NC(=O)[C@H](CC(N)=O)NC(=O)[C@H](CCC(=O)O)NC(=O)CNC(=O)[C@@H]1CCCN1C(=O)[C@H](Cc1ccc(O)cc1)NC(=O)[C@@H](NC(=O)[C@@H]1CCCN1C(=O)[C@H](CCC(=O)O)NC(=O)[C@H](CC(C)C)NC(=O)[C@@H]1CCCN1)C(C)C)[C@@H](C)O)C(=O)N[C@@H](C)C(=O)N[C@@H](CCC(N)=O)C(=O)N[C@@H](Cc1ccc(O)cc1)C(=O)N[C@@H](C)C(=O)N[C@@H](C)C(=O)N[C@@H](CC(=O)O)C(=O)N[C@@H](CC(C)C)C(=O)N[C@@H](CCCNC(=N)N)C(=O)N[C@@H](CCCNC(=N)N)C(=O)N[C@@H](Cc1ccc(O)cc1)C(=O)N[C@H](C(=O)N[C@@H](CC(N)=O)C(=O)N[C@@H](CCCC)C(=O)N[C@@H](CC(C)C)C(=O)N[C@H](C(=O)N[C@@H](CCCNC(=N)N)C(=O)N1CCC[C@H]1C(=O)N[C@@H](CCCNC(=N)N)C(=O)N[C@@H](Cc1ccc(O)cc1)C(N)=O)[C@@H](C)O)[C@@H](C)CC` [[Glu10,Nle17,Nle30]-PP(2-36), [Glu10,Nle17,Nle30]PP2-36] showed a pEC50 below 6.00.

The record behind these values is US8022035B2, “Y4 selective receptor agonists for therapeutic interventions” (7TM Pharma A/S, priority 2005, dated 2011).
